According to article PMC2682435:

Target: Swedish (K670N/M671L) mutant human APP695 (human)
Assay: FRET or BRET

Alexa 488 donor lifetime (FLIM), cells with N-cadherin: 1640 ps
Alexa 488 donor lifetime (FLIM), cells without N-cadherin: 1790 ps
Alexa 488 donor lifetime (FLIM), with control IgG: 1680 ps
Substance: Presenilin 1 (PS1), endogenous in CHO cells (from UniProt G3HNF2 1-467) (natural protein)
